Columns and labels:
[1] = tested on: anaphylaxie passive cutanée; assay: Passive cutaneous anaphylaxis test in rats; format: in vivo, rats mâles Sprague Dawley; settings: rat, given 10 min before challenge, decrease of Evans blue in the papule, limits in brackets, tested form: citrate; for DE 50 voie ip: intraperitoneal route
Procedure: L'activité antiallergique a été déterminée dans le test de l'anaphylaxie passive cutanée de la façon suivante. On administre à des rats mâles Sprague Dawley par voie intradermique 0,1 ml de sérum riche en IgE. Ce sérum a été fabriqué en sensibilisant des rats Sprague-Dawley par une injection ip d'ovalbumine et de suspension de Bordetella pertusis suivie 20 j après par une nouvelle injection d'ovalbumine. 24 heures après administration du sérum on injecte par voie iv 0,5 ml d'une solution contenant 8,25 mg/kg d'ovalbumine et 26,4 mg/kg de bleu d'Evans dans un tampon pH 7,05. Au bout de 30 mn les animaux sont sacrifiés; chaque papule est découpée, pesée et mise à incuber pendant 4 j à 37°C dans 15 g de formamide. La quantité de bleu d'Evans contenue dans chaque papule est déterminée par la mesure de la densité optique du mélange. Le produit à tester est administré par voie orale ou intrapéritonéale en suspension homogène en présence de tween 80, 10 mn avant l'injection déclenchante. Son activité est appréciée par le pourcentage de diminution de la quantité de bleu d'Evans ayant diffusé dans la papule. Les DE 50 de certains produits de la présente invention sont indiquées dans le tableau V.

motilité chez la souris = assay: Motility (actimeter) in mice, sedative effect; format: in vivo; settings: ip route, mouse, Litchfield Wilcoxon method, tested form: citrate
Text: L'effet des substances sur la motilité est appréciée chez la souris en utilisant un actimètre. Les animaux sont placés dans la cage d'activométrie et à partir du nombre de déplacements enregistrés par l'appareil,on obtient pour chaque dose considérée le pourcentage de l'effet observé par rapport au lot témoin. Ces pourcentages sont reportés sur un papier à l'échelle log-probit et la méthode de Litchfield Wilcoxon permet de calculer la dose efficace 50 sédative. Le tableau VI donne les DE 50 sédatives pour un certain nombre de produits faisant l'objet de l'invention.

souris Swiss [2] = assay: Intraperitoneal toxicity, mortality in mice; settings: mouse, in tween, Bliss method, limits in brackets, tested form: citrate
souris Swiss [3] = assay: Oral (intragastric) toxicity, mortality in mice; settings: mouse, tested form: citrate; for DL 50: Bliss method, limits in brackets; for % de mortalité en fonction de la dose exprimée en mg/kg: solvent as in the source

Compound | DE 50 voie ip [1] | DE 50 voie po [1] | DE 50 sédation (motilité chez la souris) | DL 50 (souris Swiss [2]) | DL 50 (souris Swiss [3]) | % de mortalité en fonction de la dose exprimée en mg/kg (souris Swiss [3]; dose 500 mg/kg) | % de mortalité en fonction de la dose exprimée en mg/kg (souris Swiss [3]; dose 750 mg/kg) | % de mortalité en fonction de la dose exprimée en mg/kg (souris Swiss [3]; dose 1000 mg/kg) | % de mortalité en fonction de la dose exprimée en mg/kg (souris Swiss [3]; dose 300 mg/kg)
Cc1ccc(C=Nc2ccccc2CCN2CCN(c3ccccc3)CC2)cc1 | 6,79 (4,79 - 9,55) mg/kg | 8,0 (5,62 - 11,22) mg/kg | 7 mg/kg | 254 (236 - 274) mg/kg | 792 (746 - 839) mg/kg | 0% | 30% | 100% | –
Fc1ccc(N2CCN(CCc3ccccc3N=Cc3ccccc3)CC2)cc1 | – | 9 mg/kg | 6 mg/kg | 288 (260 - 318) mg/kg | – | – | – | – | –
FC(F)(F)c1cccc(N2CCN(CCc3ccccc3N=Cc3ccco3)CC2)c1 | – | 43 (32,3 - 56,2) mg/kg | – | – | – | 0% | 20% | 50% | –
Cc1ccc(C=Nc2ccccc2CCN2CCN(c3ccccc3C)CC2)cc1 | – | 4,5 (3,2 - 6,3) mg/kg | 12 mg/kg | 330 ( 292 - 373) mg/kg | 733 (623 - 863) mg/kg | 10% | 70% | 80% | –
Fc1ccc(N2CCN(CCc3ccccc3N=Cc3cccnc3)CC2)cc1 | – | 5,7 (3,7 - 8,5) mg/kg | 4 mg/kg | – | – | 0% | 20% | 30% | –
Clc1ccc(N2CCN(CCc3ccccc3N=Cc3cccs3)CC2)cc1 | – | 17,09 (9,77 - 29,51) mg/kg | – | – | – | 0% | – | 0% | –
FC(F)(F)c1cccc(N2CCN(CCc3ccccc3N=Cc3cccnc3)CC2)c1 | – | – | 20 mg/kg | – | – | – | – | – | 0%
COc1cc(C=Nc2ccccc2CCN2CCN(c3ccc(Cl)cc3)CC2)cc(OC)c1OC | – | 8,76 (4,07 - 18,62) mg/kg | – | – | 666 (580 - 765) mg/kg | 10% | 70% | 80% | –
COc1ccccc1N1CCN(CCc2ccccc2N=Cc2cccnc2)CC1 | 5,65 (3,24 - 9,77) mg/kg | 13,3 (9,3 - 18,6) mg/kg | 9 mg/kg | – | 427 (384 - 474) mg/kg | 75% | – | – | 20%
Fc1ccc(N2CCN(CCc3ccccc3N=Cc3cccs3)CC2)cc1 | – | 6,29 (4,79 - 8,31) mg/kg | – | – | – | 0% | – | 0% | –
Cc1ccccc1N1CCN(CCc2ccccc2N=Cc2cccnc2)CC1 | – | 3,3 (1,35 - 8,13) mg/kg | 7 mg/kg | 185 ( 166 - 207) mg/kg | 676 (578 - 791) mg/kg | 20% | 50% | 100% | –
Clc1ccc(N2CCN(CCc3ccccc3N=Cc3cccnc3)CC2)cc1 | – | 5 mg/kg | 12 mg/kg | 187 (165 - 212) mg/kg | 584 (536 - 637) mg/kg | 20% | 90% | 100% | –
FC(F)(F)c1cccc(N2CCN(CCc3ccccc3N=Cc3ccccc3)CC2)c1 | – | 27,5 (20,8 - 36,3) mg/kg | – | – | – | 0% | 0% | 30% | –
Cc1ccccc1N1CCN(CCc2ccccc2N=Cc2ccco2)CC1 | – | 5,34 (3,31 - 8,71) mg/kg | – | – | 562 (489 - 644) mg/kg | 50% | 70% | 100% | –
COc1ccccc1N1CCN(CCc2ccccc2N=Cc2ccc(C)cc2)CC1 | 3,85 (2,95 - 5,13) mg/kg | 7,12(4,37 - 11,48) mg/kg | 14 mg/kg | – | 523 (440 - 621) mg/kg | 60% | 75% | 90% | –
COc1cc(C=Nc2ccccc2CCN2CCN(c3ccc(F)cc3)CC2)cc(OC)c1OC | – | 7,82 (3,89 - 15,49) mg/kg | – | – | 864 (807 - 926) mg/kg | 0% | 30% | 90% | –

Source: patent EP0078757A1, “Imines of 2-(4-phenyl-piperazinylethyl) anilines, process for their preparation and their use in medicine” (CORTIAL S.A., priority 1981, dated 1983)
